In the assay the target is human FXR (NR1H4) (Homo sapiens (Human), UniProt Q96RI1). Briefly: Human FXR (NR1H4) Assay (Gal4 promoter driven luciferase reporter, CHO cells). The class given is cell-based. On the technique in general: A reporter such as luciferase makes a cellular process visible.

By UniProt entry, the sequences of proteins in these tests, tags left out.
UniProt Q96RI1, whole entry: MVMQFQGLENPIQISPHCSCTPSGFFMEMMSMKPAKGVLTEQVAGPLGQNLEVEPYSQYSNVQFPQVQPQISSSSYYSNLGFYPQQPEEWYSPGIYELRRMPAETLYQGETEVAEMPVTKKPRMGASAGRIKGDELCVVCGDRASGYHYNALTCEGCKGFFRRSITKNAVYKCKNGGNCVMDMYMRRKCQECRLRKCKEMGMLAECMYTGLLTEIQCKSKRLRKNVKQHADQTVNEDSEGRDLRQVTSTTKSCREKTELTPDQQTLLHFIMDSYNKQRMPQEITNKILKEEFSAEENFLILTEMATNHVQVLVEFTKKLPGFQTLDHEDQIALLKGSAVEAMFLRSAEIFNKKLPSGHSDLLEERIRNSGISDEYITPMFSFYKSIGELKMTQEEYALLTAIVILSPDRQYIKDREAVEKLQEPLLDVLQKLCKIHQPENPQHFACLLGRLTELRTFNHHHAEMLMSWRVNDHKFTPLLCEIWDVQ

The values that follow come from patent US10144729B2, “Isoxazole analogs as FXR agonists and methods of use thereof” (Enanta Pharmaceuticals, Inc., priority 2016, dated 2018).

A word on the EC50: it is the midpoint of the concentration-response curve.

The compound `O=C(NS(=O)(=O)N1CCCCC1)c1ccc([C@@H]2C[C@H]2c2ccc(OCc3c(-c4c(Cl)cccc4Cl)noc3C3CC3)cc2Cl)cc1` (relative stereo) had an EC50 (FXR reporter assay in CHO cells expressing human NR1H4, 22 hours incubation, potency ranges) of 0.1 to 1 µM. Under “FXR reporter assay in CHO cells, efficacy normalized to CDCA set as 100%”, the “Efficacy (%)” value came to 279%.
